Experimental data published in the supplement of paper PMC12458215.

System: HEK293T
Test: plasma membrane surface immunostaining intensity (anti-HA, deep receptor scanning) (arbitrary fluorescence units); higher = higher plasma membrane expression
Conditions: GPCR class: A

Row | Sequence | plasma membrane surface immunostaining intensity
1 | MWNSSDANFSCYHESVLGYRYVAVSWGVVVAVTGTVGNVLTLLALAIQPKLRTRFNLLIANLTLADLLYCTLLQPFSVDTYLHLHWRTGATFCRVFGLLLFASNSVSILTLCLIALGRYLLIAHPKLFPQVFSAKGIVLALVSTWVVGVASFAPLWPIYILVPVVCTCSFDRIRGRPYTTILMGIYFVLGLSSVGIFYCLIHRQVKRAAQALDQYKLRQASIHSNHVARTDEAMPGRFQELDSRLASGGPSEGISSEPVSAATTQTLEGDSSEVGDQINSKRAKQMAEKSPPEASAKAQPIKGARRAPDSSSEFGKVTRMCFAVFLCFALSYIPFLLLNILDARVQAPRVVHMLAANLTWLNGCINPVLYAAMNRQFRQAYGSILKRGPRSFHRLH [GPR84] | 6389 ± 23
2 | MDLHLFDYSEPGNFSDISWPCNSSDCIVVDTVMCPNMPNKSVLLYTLSFIYIFIFVIGMIANSVVVWVNIQAKTTGYDTHCYILNLAIADLWVVLTIPVWVVSLVQHNQWPMGELTCKVTHLIFSINLFGSIFFLTCMSVDRYLSITYFTNTPSSRKKMVRRVVCILVWLLAFCVSLPDTYYLKTVTSASNNETYCRSFYPEHSIKEWLIGMELVSVVLGFAVPFSIIAVFYFLLARAISASSDQEKHSSRKIIFSYVVVFLVCWLPYHVAVLLDIFSILHYIPFTCRLEHALFTALHVTQCLSLVHCCVNPVLYSFINRNYRYELMKAFIFKYSAKTGLTKLIDASRVSETEYSALEQSTK [ACKR3] | 2200 ± 430

± gives the uncertainty stated by the source.
